Test system: 4T1-luciferase tumor
Test: 4T1-luciferase tumor model with IR, cGAMP and anti-CTLA-4: tumor volume and survival
Assay type: in vivo, mouse
Details: compound 1 in addition to cGAMP, intratumoral after 20 Gy IR

Compound `COc1cc2ncnc(N3CCC(CCP(=O)(O)O)CC3)c2cc1OC` [Compound 1, dimethyl (2-(1-(6,7-dimethoxyquinazolin-4-yl)piperidin-4-yl)ethyl)phosphonic acid] has a cure rate of 10%.

From US11701371B2, “ENPP1 inhibitors and their use for the treatment of cancer” (THE BOARD OF TRUSTEES OF THE LELAND STANFORD JUNIOR …, priority 2017, dated 2023)
